In patent publication US9504729B2, “Antiangiogenic small molecules and methods of use” (The United States of America, as represented by the …, priority 2009, dated 2016):

Tested on: PAE cells
Assay: Growth dose response (IC50) in PAE
Assay type: cell-based, porcine
Settings: Sus scrofa, read-out: Growth IC50 (M) in PAE

## COc1ccc2c(c1)c1c(C)c3cnccc3c(C)c1n2CCCN [Compound 26, 3-(9-methoxy-5,11-dimethylpyrido[4,3-b]carbazol-2-ium-6-yl)propan-1-amine chloride]
  IC50: 8.38e-11 M
